{"sequences": {"note": "The chains behind the UniProt entries cited, without tags or fusion partners. Residues count along the entry.", "UniProt P28335, 33-458": "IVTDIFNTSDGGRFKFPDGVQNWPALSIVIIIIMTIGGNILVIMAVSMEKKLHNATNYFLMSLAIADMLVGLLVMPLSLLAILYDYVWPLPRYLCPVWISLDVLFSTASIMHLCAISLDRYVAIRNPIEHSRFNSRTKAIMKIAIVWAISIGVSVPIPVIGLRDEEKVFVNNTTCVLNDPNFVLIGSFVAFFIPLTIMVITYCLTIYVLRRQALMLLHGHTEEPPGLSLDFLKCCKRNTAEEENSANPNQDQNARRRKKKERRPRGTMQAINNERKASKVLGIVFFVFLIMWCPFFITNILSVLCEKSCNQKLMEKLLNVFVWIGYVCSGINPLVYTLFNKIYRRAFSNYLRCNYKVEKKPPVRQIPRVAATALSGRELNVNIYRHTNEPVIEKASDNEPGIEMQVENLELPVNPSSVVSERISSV"}, "source": "paper PMC8296307", "about": "(Epilepsy research, 2021)", "target": "h5-HT2C-INI (Homo sapiens, UniProt P28335)", "type": "binding"}
{"smiles": "CN1C[C@@H](NS(=O)(=O)N(C)C)C[C@@H]2c3cccc4c3c(cn4C)C[C@H]21", "note": "[Mesulergine]", "values": [{"measurement": "Ki", "result": 3.8, "unit": "nM"}]}
